The values below come from patent US10405569B2, “Lanctobacillus plantarum HAC01 strain having anti-inflammatory efficacy and metabolic disease alleviating efficacy and use thereof” (ATOGEN CO., LTD., priority 2014, dated 2019).

Turning to Lactobacillus rhamnosus GG, the “After one hour at pH 3.0 (viable cell count)” value (1 hour, pH 3.0, 37° C.) turned out to be 8.54 ± 0.281 logCFU/mL. Besides, the “After two or more hours in 3.25% oxgall (viable cell count)” value (after pH 3.0 step, bile juice and duodenum juice, 37° C.) is 6.82 ± 0.064 logCFU/mL. Further, the Initial cell count (cells re-suspended in MRS broth pH 3, before incubation) worked out at 9.12 ± 0.311 logCFU/mL. For the same substance, the Overall survival rate (viable cells after 3 hours vs initial cells) was determined as 0.54 ± 0.293%.
